# AlphaSeq binding of Ab-95 light chain variants to a spike HR2 peptide

All variants were tested on one target, the spike HR2 peptide PDVDLGDISGINAS (SARS-CoV-2).

Each scFv is VH, the linker GGGGSGGGGSGGGGS, VL, as in the parent Ab-95, and differs from it in the CDRs of the light chain only.
VH: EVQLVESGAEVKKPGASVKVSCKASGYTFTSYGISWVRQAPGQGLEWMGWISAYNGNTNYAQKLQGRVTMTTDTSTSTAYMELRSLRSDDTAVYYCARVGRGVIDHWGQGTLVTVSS
VL: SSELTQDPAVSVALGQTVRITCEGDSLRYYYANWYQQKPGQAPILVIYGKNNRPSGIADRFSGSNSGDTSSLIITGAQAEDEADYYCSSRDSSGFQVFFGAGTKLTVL

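Library AAYL52 holds single substitutions and randomly drawn double and triple substitutions in the CDRs. The assay is AlphaSeq: two haploid yeast populations carry antibody and antigen on their surface. Mating (16 h, 30 °C) was followed by selection of diploids and sequencing of their barcodes. A regression on co-assayed BCL2-family reference pairs converts the normalised counts of each replicate to an apparent Kd. Mating was done three times.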

The parent's light chain CDRs are EGDSLRYYYAN, GKNNRPS, SSRDSSGFQVF; each variant's own CDRs replace them letter for letter.
Affinities are written as log10 Kd with Kd in nM; a lower number is a better binder.
A mean of the replicates is given; it leaves out those without a signal.
An entry "n.d." has no value in the source: the pair was not observed among the diploids in that replicate. This suggests poor binding but is not conclusive.
Empty control strains, which show no peptide, gave a signal in 28% of pairings with library AAYL52; the median was 3.91 and 95% of these signals were weaker than 2.90. No background was subtracted. Also given: how often the same scFv was detected with the empty control strains, with their mean in brackets.

| CDR-L1 | CDR-L2 | CDR-L3 | log10 Kd (nM) by replicate | mean, log10 nM | signal with controls |
|---|---|---|---|---|---|
| EGDSLRYYYAN | GKNNRGS | STRDSSGFQTF | 4.25 n.d. n.d. | 4.25 | 3 of 9 (4.01) |
| CGDSLRYYYAG | GKNNRMS | SSRDSSGFQVF | 5.26 n.d. n.d. | 5.26 | 7 of 9 (3.95) |
| EGDSLRYYYAN | GKNNRPS | SWRDSSPAQVF | 2.59 4.39 2.12 | 3.04 | 4 of 9 (3.67) |
| EGDSLRYYYAN | SKNNMPS | SSRDSVGFQVF | n.d. n.d. n.d. | n.d. | 1 of 9 (3.52) |
| EWDSLNYYYAN | GKNNRPS | SSRDHSGFQVF | n.d. n.d. n.d. | n.d. | 3 of 9 (3.86) |
| EGDSLRYYLAN | GFNGRPS | SSRDSSGFQVF | n.d. n.d. 4.16 | 4.16 | 3 of 9 (4.32) |
| EGHSLDYYYAN | GKNNHPS | SSRDSSGFQVF | 3.00 3.75 3.86 | 3.54 | 3 of 9 (3.71) |
| EGDDLRYYYAN | GKNNWPS | SARDSSGFQVF | n.d. n.d. 2.95 | 2.95 | 1 of 9 (3.38) |
| EGDSLRYYYAN | GKNWRPS | SSRDCSQFQVF | n.d. n.d. n.d. | n.d. | 2 of 9 (4.13) |
| EGLSLRYYYAN | GKNNRPS | SSRDSSEFRVF | n.d. n.d. n.d. | n.d. | 2 of 9 (3.47) |
| EGDSHRYQYAN | GKENRPS | SSRDSSGFQVF | 2.23 2.03 1.75 | 2.00 | 2 of 9 (4.19) |
| EGDSLRYYYAN | GKNNRPS | SSRDSSHFDVF | 3.21 3.10 4.19 | 3.50 | 3 of 9 (4.64) |
| EGDSLRNYRAN | GKNNRPS | SSHDSSGFQVF | 3.32 3.89 2.75 | 3.32 | 2 of 9 (4.03) |
| EGDSLRYYYRN | GYNNRPS | SSRDSSGFQVF | 4.26 3.84 4.08 | 4.06 | 5 of 9 (4.43) |
| EGDSLRYYHAN | GKNHRPS | SSRDSSGFQAF | 3.31 3.95 4.42 | 3.90 | 4 of 9 (3.81) |
| EGTSLQYYYAN | GDNNRPS | SSRDSSGFQVF | 1.93 1.66 1.54 | 1.71 | 1 of 9 (3.94) |
| EYDSLFYYYAN | GKNNRPS | SSRDSSGFQVF | 2.68 n.d. 3.48 | 3.08 | 3 of 9 (3.64) |
| VGDSLRGYYAN | GRNNRPS | SSRDSSGFQVF | 1.79 1.60 1.15 | 1.51 | 4 of 9 (3.61) |
| EGDSLRYYDAN | GKNSRPS | SSRDSSGYQVF | 1.32 1.11 0.73 | 1.05 | 5 of 9 (4.65) |
| EGDSLRYYYAH | GKNNRPS | SSRDSSGFQSF | n.d. 3.25 n.d. | 3.25 | 3 of 9 (4.51) |
| EGDSLRYYYAN | GKNNRPS | HSMDSSWFQVF | 1.89 1.80 2.00 | 1.90 | 4 of 9 (4.15) |
| EGDSGRYYYFN | GKNNWPS | SSRDSSGFQVF | 4.71 5.45 n.d. | 5.08 | 5 of 9 (4.52) |
| EGDSLRYKYAN | GKNNIPS | SSRDSSGPQVF | 4.13 5.25 2.87 | 4.08 | 3 of 9 (4.29) |
| EQPSLRVYYAN | GKNNRPS | SSRDSSGFQVF | 4.93 5.73 n.d. | 5.33 | 3 of 9 (4.11) |
| EGDYFRYYYAN | GKNNRPS | SSRDSSGLQVF | n.d. 3.27 3.07 | 3.17 | 1 of 9 (4.35) |
| EEDSLRYYYAN | GKNNRPS | SSRDQSSFQVF | n.d. 5.17 n.d. | 5.17 | 3 of 9 (3.84) |
| EEDSLRYYYAN | GKNNRPS | SSRDNSGFQVF | n.d. 3.93 n.d. | 3.93 | 2 of 9 (3.84) |
| EGDKLRYYYAN | GKNNRPS | SSRDSSGCQVQ | n.d. n.d. n.d. | n.d. | 0 of 9 |
| EGDSLRMYYAN | GKNNRPS | SSHDSSGFQVF | 3.99 3.41 3.25 | 3.55 | 3 of 9 (4.05) |
| EGDSMRYYYRN | GKNNYPS | SSRDSSGFQVF | 3.65 5.41 3.04 | 4.03 | 5 of 9 (3.45) |
| SGDSLRYYYAN | AKNCRPS | SSRDSSGFQVF | n.d. 3.15 n.d. | 3.15 | 1 of 9 (4.24) |
| EGDSLRYYAAN | KKNNRPS | SSRDSSGFQRF | n.d. n.d. n.d. | n.d. | 2 of 9 (3.86) |
| EGDSLRYYYAN | GKNNQPS | SSRDSSVFQVK | n.d. n.d. n.d. | n.d. | 1 of 9 (4.09) |
| EGDSLRYYYAN | GKNNRPS | SPRDSSGFQVF | 2.10 2.41 1.40 | 1.97 | 0 of 9 |
| EGDSLRYAFAN | GKNNRPS | SSGDSSGFQVF | 2.47 2.05 1.99 | 2.17 | 0 of 9 |
| EGDSLRYYYQN | GKNNRPS | SSRDWSGFQVW | 4.53 n.d. n.d. | 4.53 | 2 of 9 (3.50) |
| EGDSWRYYYAN | GKNNRPR | SSRDSSGFQVF | n.d. 4.79 n.d. | 4.79 | 2 of 9 (3.28) |
| ETDWLRYYYAN | GKNNRPS | SSRDSIGFQVF | n.d. n.d. n.d. | n.d. | 0 of 9 |
| EGDSLRIYYAN | GKNNRPP | SSRDMSGFQVF | 3.28 n.d. n.d. | 3.28 | 1 of 9 (3.48) |
| PGDSMRYYYAN | GKNNRPS | SSSDSSGFQVF | 3.64 3.05 3.38 | 3.36 | 5 of 9 (4.17) |
| EGDSLWYYYAN | GKNNRPS | SSYDISGFQVF | 3.17 n.d. 4.16 | 3.67 | 2 of 9 (3.23) |
| EGDSLRYYYAW | GKNNRPM | SSRESSGFQVF | 3.27 2.81 3.18 | 3.09 | 1 of 9 (5.28) |
| EGDSLRYLYAN | GKNNRWS | SSRDSSGFEVF | 4.10 4.14 n.d. | 4.12 | 0 of 9 |

Extract of 5 entries:

| CDR-L1 | CDR-L2 | CDR-L3 | log10 Kd (nM) by replicate | mean, log10 nM | signal with controls |
|---|---|---|---|---|---|
| EGDSHRYQYAN | GKENRPS | SSRDSSGFQVF | 2.23 2.03 1.75 | 2.00 | 2 of 9 (4.19) |
| VGDSLRGYYAN | GRNNRPS | SSRDSSGFQVF | 1.79 1.60 1.15 | 1.51 | 4 of 9 (3.61) |
| EGDSLRYYHAN | GKNHRPS | SSRDSSGFQAF | 3.31 3.95 4.42 | 3.90 | 4 of 9 (3.81) |
| EGDSLRYAFAN | GKNNRPS | SSGDSSGFQVF | 2.47 2.05 1.99 | 2.17 | 0 of 9 |
| EGDSLRYYYAH | GKNNRPS | SSRDSSGFQSF | n.d. 3.25 n.d. | 3.25 | 3 of 9 (4.51) |

Source: Engelhart et al. 2022 (doi:10.1038/s41597-022-01779-4), MIT Lincoln Laboratory and A-Alpha Bio; data file from the FLAb repository.